## Binding of CDR-mutated scFvs to a peptide of the spike HR2 region

All variants were tested on one target, the spike HR2 peptide PDVDLGDISGINAS (SARS-CoV-2).

Parent: Ab-91, a human scFv built as VL, the linker GGGGSGGGGSGGGGS, VH. Only the CDRs of the heavy chain vary.
VL: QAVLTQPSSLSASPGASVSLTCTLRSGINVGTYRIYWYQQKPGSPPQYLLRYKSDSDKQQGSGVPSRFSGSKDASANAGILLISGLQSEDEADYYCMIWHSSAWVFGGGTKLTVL
VH: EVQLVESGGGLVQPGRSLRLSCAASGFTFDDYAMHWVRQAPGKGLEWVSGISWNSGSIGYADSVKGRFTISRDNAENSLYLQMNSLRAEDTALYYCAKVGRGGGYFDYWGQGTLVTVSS

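The parent was found by panning a naive human phage display library on the peptide. Variants in AAYL51 differ from the parent at up to three CDR positions; double and triple changes were sampled at random. AlphaSeq pools MATa yeast showing the antibodies with MATalpha yeast showing the peptide. Mating (16 h, 30 °C) was followed by selection of diploids and sequencing of their barcodes. Read counts were normalised to the haploid input and turned into Kd by a linear fit to BCL2-family pairs of known affinity, for each replicate. There are three technical replicates.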

Each variant is given by its three heavy chain CDRs, as the data file delimits them; those of the parent are GFTFDDYAMH, GISWNSGSIGYADSVK, VGRGGGYFDY. Scale: log10 of Kd in nM, estimated from mating counts; low values are strong binders. Replicates are averaged; those with no signal do not enter the mean. An entry "n.d." has no value in the source: the pair was not observed among the diploids in that replicate. This suggests poor binding but is not conclusive. For reference, the parent read 1.86 as the reference entry and 0.88 as a member of this library. Three control strains display no target. For library AAYL51, 21% of the pairings with them gave a signal, with a median of 4.54 and one signal in twenty below 3.26, so weak values seen in few replicates may be background. For each scFv, signals with the empty controls are counted beside the result, with their mean in brackets.

CDR-H1,CDR-H2,CDR-H3,log10 Kd (nM) by replicate,mean log10 Kd (nM),empty controls
GFTFDDYAMH,GKSWNSSSIGYADSVK,VGRGGGYTDY,4.69 / 4.23 / n.d.,4.46,2/9 (4.58)
GFTFDDMAMH,GISWNSRSIGYADSVK,VQRGGGYFDY,5.17 / 5.01 / n.d.,5.09,2/9 (4.76)
GFTFDDYAMH,GISWPSGSIKYADSVK,VGRGGGYMDY,n.d. / n.d. / n.d.,n.d.,4/9 (3.91)
GFTFDDLAMH,GISINSGSIGYADSVK,AGRGGGYFDY,4.10 / n.d. / n.d.,4.10,2/9 (3.44)
GFTFDDYAMH,GTSWNSTSIYYADSVK,VGRGGGYFDY,n.d. / n.d. / n.d.,n.d.,1/9 (2.99)
GFTFDDYAMH,GISIGSGSIGYFDSVK,VGRGGGYFDY,n.d. / n.d. / 4.80,4.80,1/9 (4.58)
GFTFDDVAMH,RISWNSGSIGWADSVK,VGRGGGYFDY,4.51 / n.d. / n.d.,4.51,3/9 (5.17)
SFTFDDYAMH,GISWNSGSIGYADSVK,VGRGGGYVRY,3.21 / n.d. / n.d.,3.21,2/9 (4.81)
GFTFLDYAMH,GISWNRGSIGYADSVK,VGRGGVYFDY,n.d. / n.d. / n.d.,n.d.,2/9 (3.83)
GFYFDDDAMH,GISWNSGSIGYNDSVK,VGRGGGYFDY,4.59 / n.d. / n.d.,4.59,1/9 (4.94)
SFTFCDYAMH,GISWNSGSIGYADSVK,VGRGGGYSDY,3.46 / n.d. / n.d.,3.46,0/9
GFTFDDYLMH,GISWNSGSIGYAWSVK,VGRGGGYFDL,4.23 / n.d. / n.d.,4.23,0/9
GFTFDDYAMH,GISWWSGSIGYARSVK,VGRHGGYFDY,n.d. / n.d. / n.d.,n.d.,3/9 (3.68)
GFTFDDYAMH,GISCNSGSIGYCDSVK,VGRGGGYFDY,4.04 / 3.10 / 4.63,3.92,1/9 (4.18)
GFTFADYAMH,GISWISGVIGYADSVK,VGRGGGYFDY,2.40 / 3.87 / n.d.,3.13,1/9 (4.26)
GFTFDDYAMH,GYSWNSGSIGYADSVK,EGRGCGYFDY,6.24 / 5.81 / 5.17,5.74,3/9 (4.36)
EFTFDDYAMH,GLSWNSGSIGYADSTK,VGRGGGYFDY,n.d. / n.d. / n.d.,n.d.,0/9
GFTFDDYAMH,GISWNSGSIMYADPVK,VGQGGGYFDY,n.d. / n.d. / n.d.,n.d.,0/9
GFTFHDYAMW,GISWFSGSIGYADSVK,VGRGGGYFDY,n.d. / n.d. / n.d.,n.d.,0/9
GFTFDCYAMH,GISWSSGSIGYADSVK,VGRGGGYFDA,1.50 / 1.48 / 1.11,1.36,6/9 (5.36)
GFTFDDYAMH,GISWNSGSIFPYDSVK,VGRGGGYFDY,5.00 / n.d. / n.d.,5.00,0/9
GVTFDDYAMH,GISWNSGSIGAADSSK,VGRGGGYFDY,n.d. / n.d. / n.d.,n.d.,0/9
GFTFDDYAMH,GYSWNSGQIGYADSGK,VGRGGGYFDY,n.d. / 3.73 / n.d.,3.73,3/9 (4.06)
GFTFDDYAMH,GISWNSGSIGYADSVK,VHRGGGYFFY,n.d. / n.d. / n.d.,n.d.,0/9
GFTFDDYAMH,GISWNSGSIGYADSVK,YGYGGGYFDY,n.d. / 5.47 / n.d.,5.47,2/9 (3.48)
GFDFDDYAMH,GISWNGGSIGYAMSVK,VGRGGGYFDY,3.88 / 4.86 / 5.01,4.58,4/9 (4.76)
GFTFDDYHMH,QISWNSGSIGYADSVK,VGRGGGYGDY,n.d. / n.d. / n.d.,n.d.,0/9
GFTFDDYAMH,GLSWNSGSIGYADSVT,VGRGCGYFDY,n.d. / n.d. / n.d.,n.d.,0/9
GFTFDDYAMH,GDSWNSGSIGYADSLK,VGRGGGYFDY,4.49 / n.d. / n.d.,4.49,4/9 (4.94)
GFTFDDYAMH,IISWNSGSFGYADSVK,VGRQGGYFDY,5.02 / 6.06 / 5.21,5.43,4/9 (5.14)
GFTFDDYSMH,GISWNSMSIGYADSLK,VGRGGGYFDY,4.64 / n.d. / 2.95,3.79,0/9
GFTFDDYAMM,GISWNSCSIGYADSVK,VGRGGFYFDY,n.d. / 5.04 / n.d.,5.04,0/9
GFTFDDYAMM,GISWNSGSIGYNDSVK,VGNGGGYFDY,5.09 / 5.22 / n.d.,5.15,6/9 (4.50)
GFRFDDYAMH,GISWNPGSIRYADSVK,VGRGGGYFDY,3.56 / 4.98 / n.d.,4.27,1/9 (4.78)
GFTFDDYAMH,GISWNKGWIGYADSVK,VGRPGGYFDY,n.d. / 5.60 / 5.07,5.34,2/9 (4.10)
GFTFDDYAMH,GISYNSGSTGYADSVK,VGFGGGYFDY,n.d. / n.d. / n.d.,n.d.,1/9 (5.29)
GFTFDDYAMH,GISWNSGSIGYADSVK,VGSGILYFDY,n.d. / n.d. / n.d.,n.d.,0/9

Excerpt, the final 4 entries:

CDR-H1,CDR-H2,CDR-H3,log10 Kd (nM) by replicate,mean log10 Kd (nM),empty controls
GFRFDDYAMH,GISWNPGSIRYADSVK,VGRGGGYFDY,3.56 / 4.98 / n.d.,4.27,1/9 (4.78)
GFTFDDYAMH,GISWNKGWIGYADSVK,VGRPGGYFDY,n.d. / 5.60 / 5.07,5.34,2/9 (4.10)
GFTFDDYAMH,GISYNSGSTGYADSVK,VGFGGGYFDY,n.d. / n.d. / n.d.,n.d.,1/9 (5.29)
GFTFDDYAMH,GISWNSGSIGYADSVK,VGSGILYFDY,n.d. / n.d. / n.d.,n.d.,0/9

From the AlphaSeq antibody data of Engelhart et al. 2022 (doi:10.1038/s41597-022-01779-4), copy in the FLAb collection.